According to patent US9597402B2, “Sustained release small molecule drug formulation” (DURECT CORPORATION, priority 2005, dated 2017):
Like-named read-outs stand apart in the source and are kept apart here.

Experiment: pKa (Table 1 physiochemical properties)
From the text: In one embodiment, a small molecule drug formulation includes a small molecule psychotherapeutic drug, such as a small molecule antipsychotic, dopamine receptor agonist, dopamine receptor antagonist, serotonin receptor agonist, serotonin receptor antagonist, and serotonin uptake inhibitor drug. […] R209130-base has the molecular formula C19H20FNO. R209130-mandelic acid salt (R209130) has the molecular formula C19H20FNO.C8H8O3. R209130-tartaric acid salt (R167154) has the molecular formula C19H20FNO.C4H6O6.

With `Cc1nc2n(c(=O)c1CCN1CCC(c3noc4cc(F)ccc34)CC1)CCCC2` [Risperidone pamoate, Risperidone-pamoate] the pKa was 8.2 and the pKa (second printed value (after slash)) was 3.1.
